{"source": "patent US6552168B1", "about": "“Gamma-ketoacid tetrapeptides as inhibitors of caspase-3” (Merck Frosst Canada & Co., priority 1998, dated 2003)", "origin": "cited, not measured here", "key": {"caspase-1": {"target": "T1, caspase-1 (Homo sapiens, UniProt P29466)", "T1 sequence (P29466 120-297 limits assumed)": "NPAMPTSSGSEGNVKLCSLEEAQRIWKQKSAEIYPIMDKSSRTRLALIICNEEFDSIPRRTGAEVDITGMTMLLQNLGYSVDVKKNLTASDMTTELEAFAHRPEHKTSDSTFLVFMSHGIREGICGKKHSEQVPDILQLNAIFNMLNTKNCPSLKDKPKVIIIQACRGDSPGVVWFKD", "T1 sequence (P29466 317-404 limits assumed)": "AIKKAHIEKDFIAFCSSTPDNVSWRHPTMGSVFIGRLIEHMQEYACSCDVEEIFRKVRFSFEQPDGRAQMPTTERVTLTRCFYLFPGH"}, "caspase-3": {"target": "T2, caspase-3 (Homo sapiens, UniProt P42574)", "T2 sequence (P42574 29-175 limits assumed)": "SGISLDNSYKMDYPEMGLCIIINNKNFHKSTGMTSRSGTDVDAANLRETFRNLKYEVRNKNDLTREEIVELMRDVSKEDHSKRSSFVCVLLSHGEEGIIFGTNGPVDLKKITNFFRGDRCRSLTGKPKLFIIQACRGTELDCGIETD", "T2 sequence (P42574 176-277 limits assumed)": "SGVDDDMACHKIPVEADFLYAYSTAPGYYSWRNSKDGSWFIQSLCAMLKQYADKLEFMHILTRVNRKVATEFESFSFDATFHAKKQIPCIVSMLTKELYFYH"}}}
{"substance": "Ac-DEVD-CHO", "values": [{"measurement": "inhibition of caspase-1 (in words)", "setting": "caspase-1", "value": "weaker but reasonable inhibitor of caspase-1"}, {"measurement": "Ki", "setting": "caspase-3", "value": "< 1", "unit": "nM"}, {"measurement": "kon caspase-3", "setting": "caspase-3; slow-binding time-dependent inhibition", "value": 130000, "unit": "M⁻¹ s⁻¹"}]}
